# Assays:
# inTPCs [1] = test: Cell viability; format: cell-based, C57BL/6 J mice; conditions: 1 μM CCCP or 5 μM CsA, 48 h
# Procedure, shortened: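 Mouse tendon cells (passage 3–4) were seeded in 96-well plates and exposed to test compound at varying concentrations (0, 0.1, 0.5, 1, 5, 10 μM for the inhibitor) for 48 h. They were then incubated with 10% CCK-8 at 37 °C for 1 h, and absorbance was read at 450 nm to calculate viability.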
# inTPCs [2] = test: Apoptosis; format: cell-based, C57BL/6 J mice; conditions: 1 μM CCCP or 5 μM CsA
substance,measurement,setting,value
cyclosporin A [CsA],cell viability (poisoning),inTPCs [1],did not cause poisoning
same,apoptosis,inTPCs [2],did not cause poisoning (Fig. 3A and B) or apoptosis

# Reference: paper PMC12799515 (Journal of Orthopaedic Translation, 2025)
